Protein sequences, listed by entry. Tags and fused reporters are not part of them. Lines headed by an entry give the natural chain unless they say otherwise; changes in a name come on top. Chains listed by the source or under a name are the forms on record and can include a tag or linker.
UniProt P23979, as listed by the source: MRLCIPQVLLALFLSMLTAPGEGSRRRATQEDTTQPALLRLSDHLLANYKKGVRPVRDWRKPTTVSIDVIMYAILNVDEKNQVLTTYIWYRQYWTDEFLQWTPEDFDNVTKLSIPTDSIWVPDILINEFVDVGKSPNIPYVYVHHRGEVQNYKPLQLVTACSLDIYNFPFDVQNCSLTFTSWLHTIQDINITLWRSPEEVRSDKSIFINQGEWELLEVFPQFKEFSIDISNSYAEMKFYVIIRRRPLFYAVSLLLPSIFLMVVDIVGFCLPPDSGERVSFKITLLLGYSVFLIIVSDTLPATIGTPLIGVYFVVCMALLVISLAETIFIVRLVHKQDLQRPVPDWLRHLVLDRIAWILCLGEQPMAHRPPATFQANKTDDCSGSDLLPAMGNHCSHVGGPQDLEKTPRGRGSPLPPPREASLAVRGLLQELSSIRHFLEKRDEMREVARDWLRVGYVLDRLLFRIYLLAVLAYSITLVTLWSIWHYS
UniProt Q9JHJ5: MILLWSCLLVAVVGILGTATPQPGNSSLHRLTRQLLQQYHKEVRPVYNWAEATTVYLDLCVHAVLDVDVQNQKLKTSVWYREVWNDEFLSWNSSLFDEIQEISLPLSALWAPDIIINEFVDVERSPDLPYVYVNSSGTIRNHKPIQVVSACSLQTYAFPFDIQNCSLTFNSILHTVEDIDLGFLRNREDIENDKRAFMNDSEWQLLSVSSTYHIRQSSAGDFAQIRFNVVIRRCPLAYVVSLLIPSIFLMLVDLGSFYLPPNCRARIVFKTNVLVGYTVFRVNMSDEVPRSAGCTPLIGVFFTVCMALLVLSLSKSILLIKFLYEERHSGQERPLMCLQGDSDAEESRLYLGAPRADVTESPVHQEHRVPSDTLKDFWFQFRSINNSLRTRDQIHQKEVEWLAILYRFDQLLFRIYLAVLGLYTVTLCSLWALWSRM

In BindingDB's records for doi:10.1021/jm00168a011 (Merrell Dow Research Institute, 1990):

Target: 5-hydroxytryptamine receptor 3A/3B (Mus musculus, UniProt P23979+Q9JHJ5)
Assay: Binding affinity towards 5-hydroxytryptamine 3 receptor was determined by using [3H]-ICS 205-930 as radioligand in mouse N1E 115 cells

COc1cc(N)c(Cl)cc1C(=O)N[C@H]1CCN2CCC[C@@H]1C2
Kd: 3.2 nM
